# Apparent affinities of Ab-95 variants for a coronavirus HR2 peptide

All variants were tested on one target, the spike HR2 peptide PDVDLGDISGINAS (SARS-CoV-2).

The variants keep the heavy chain, the linker and the frameworks of Ab-95 (scFv order VH, the linker GGGGSGGGGSGGGGS, VL).
VH: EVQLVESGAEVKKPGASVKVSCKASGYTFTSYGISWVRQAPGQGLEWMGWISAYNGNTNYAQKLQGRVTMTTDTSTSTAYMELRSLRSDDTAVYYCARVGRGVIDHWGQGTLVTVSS
VL: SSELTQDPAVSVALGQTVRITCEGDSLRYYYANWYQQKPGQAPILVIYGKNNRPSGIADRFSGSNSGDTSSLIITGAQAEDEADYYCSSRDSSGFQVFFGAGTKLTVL

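Phage display of a naive human antibody library on the peptide gave the parent. In library AAYL52, one, two or three CDR residues were substituted; doubles and triples were drawn at random. The scFvs were displayed on barcoded MATa yeast, the peptide on MATalpha yeast. Binding brings cells together so that they mate, and sequencing counts the barcode pairs among the diploids. Scores were corrected for input abundance and mapped to Kd with protein pairs of known affinity run in the same pool. Each pool was mated in three replicate cultures.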

Changes read parent residue, position, new residue, counted from the first residue of the VL shown.
Numbers give log10(Kd / nM), so 0 is 1 nM and 3 is 1 µM. Smaller is tighter.
Replicates are averaged; those with no signal do not enter the mean.
Where no diploid with the target was found in any replicate, the entry reads "no signal": below detection, most likely a poor binder, though not proof of it.
As a blank, each scFv also met three strains without target: over library AAYL52, 28% of these pairings were detected, typically at 3.91 and seldom below 2.90.
For reference, the parent read 2.31 as the reference entry and 2.25 as a member of this library.

D25I+L27V+N52M: 3.73 (3 of 3 replicates).
K50P+S89V+F98H: 1.95 (3 of 3 replicates).
Y30M+A32D: 2.13 (3 of 3 replicates).
N33F+S92E+V97P: no signal (0 of 3 replicates).
S88P+R90E+S93D: 3.70 (3 of 3 replicates).
Y31R+R53V+S88V: 3.28 (1 of 3 replicates).
D25Q+Y30V+D91T: 2.23 (3 of 3 replicates).
G24P+A32R+S93V: 3.54 (2 of 3 replicates).
S88H+S93Y+V97H: 3.64 (3 of 3 replicates).
E23C+S88E+F95A: 2.72 (2 of 3 replicates).
E23T+G24P+G94A: 4.54 (3 of 3 replicates).
Y29G+R53F+S55H: 5.92 (1 of 3 replicates).
S26V+D91R+S92Y: 3.90 (2 of 3 replicates).
L27N+N51E+Q96F: 3.81 (1 of 3 replicates).
Y31K+G49T+S55A: 4.66 (3 of 3 replicates).
A32D+N51R+S93G: 3.09 (1 of 3 replicates).
N52L+R90M+S93N: no signal (0 of 3 replicates).
Y30I+S55M+S88D: 4.33 (2 of 3 replicates).
N33D+S89I+D91N: no signal (0 of 3 replicates).
E23P+S26K+K50D: no signal (0 of 3 replicates).
R28V+R53G+F98K: 3.06 (1 of 3 replicates).
S26Y+Y31R+S92M: 3.21 (2 of 3 replicates).
Y30R+N51W: 3.16 (3 of 3 replicates).
S26D+N51I+F95C: 3.69 (2 of 3 replicates).
A32V+K50H+S88A: 2.89 (3 of 3 replicates).
D25T+A32K: 2.38 (3 of 3 replicates).
S92F+F95L+F98H: 2.71 (3 of 3 replicates).
Y31H+P54V+F98Q: 2.73 (3 of 3 replicates).
E23K+S89G+S92H: 1.51 (3 of 3 replicates).
R28E+Y29H+N51D: 1.88 (3 of 3 replicates).
D25N+N33R+G94P: 4.14 (1 of 3 replicates).
L27M+N52W: 4.34 (2 of 3 replicates).
D25V+Y29D+R53G: 3.82 (3 of 3 replicates).
N51E+R90S+S93V: no signal (0 of 3 replicates).
D91P+Q96T: 2.73 (3 of 3 replicates).
D25L+R90S+F95P: 4.62 (2 of 3 replicates).
D25V+K50I+S55R: 3.60 (3 of 3 replicates).

Excerpt, the final 4 entries:

changes	log10 Kd (nM), mean	detected
N51E+R90S+S93V	no signal	0 of 3
D91P+Q96T	2.73	3 of 3
D25L+R90S+F95P	4.62	2 of 3
D25V+K50I+S55R	3.60	3 of 3

From the AlphaSeq antibody data of Engelhart et al. 2022 (doi:10.1038/s41597-022-01779-4), copy in the FLAb collection.